# Biological target: NPY4R (Homo sapiens, UniProt P50391)
# Amino acid sequences for entries named in this document (tags omitted).
# UniProt P50391, whole entry, species assumed: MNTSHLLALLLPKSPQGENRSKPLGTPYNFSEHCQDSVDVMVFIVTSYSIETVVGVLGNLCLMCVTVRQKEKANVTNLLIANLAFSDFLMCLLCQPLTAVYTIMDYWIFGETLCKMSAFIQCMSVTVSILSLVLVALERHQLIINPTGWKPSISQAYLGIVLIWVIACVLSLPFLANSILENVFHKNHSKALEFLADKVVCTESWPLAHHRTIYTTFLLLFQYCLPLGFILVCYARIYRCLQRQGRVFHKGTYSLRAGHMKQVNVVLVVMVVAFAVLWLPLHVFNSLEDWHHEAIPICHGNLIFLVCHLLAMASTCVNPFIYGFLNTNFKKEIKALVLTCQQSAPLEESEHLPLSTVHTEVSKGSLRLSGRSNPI
# Experiment: Effect on the Y2Receptor family: NPY4R
structure (smiles),measurement,setting,value
"CC[C@H](C)[C@H](N)C(=O)N[C@@H](CCCCN)C(=O)N1CCC[C@H]1C(=O)N[C@@H](CCC(=O)O)C(=O)N[C@@H](C)C(=O)N1CCC[C@H]1C(=O)NCC(=O)N[C@@H](CCC(=O)O)C(=O)N[C@@H](CC(=O)O)C(=O)N[C@@H](C)C(=O)N[C@@H](CO)C(=O)N1CCC[C@H]1C(=O)N[C@@H](CCC(=O)O)C(=O)N[C@@H](CCC(=O)O)C(=O)N[C@@H](CC(C)C)C(=O)N[C@@H](CC(N)=O)C(=O)N[C@@H](CCCNC(=N)N)C(=O)N[C@@H](Cc1ccc(O)cc1)C(=O)N[C@@H](Cc1ccc(O)cc1)C(=O)N[C@@H](C)C(=O)N[C@@H](CO)C(=O)N[C@@H](CC(C)C)C(=O)N[C@@H](CCCNC(=N)N)C(=O)N[C@@H](Cc1c[nH]cn1)C(=O)N[C@@H](Cc1ccc(O)cc1)C(=O)N[C@@H](CC(C)C)C(=O)N[C@@H](CC(N)=O)C(=O)N[C@@H](CC(C)C)C(=O)N[C@H](C(=O)N[C@H](C(=O)N[C@@H](CCCNC(=N)N)C(=O)N[C@@H](CCC(N)=O)C(=O)N[C@@H](CCCNC(=N)N)C(=O)N[C@@H](Cc1ccc(O)cc1)C(N)=O)[C@@H](C)O)C(C)C [PYY(3-36), reference compound]",NPY4R,listed as PYY(3-36) charge 1,162 nM
same,NPY4R,listed as PYY(3-36) charge 2,131 nM

# Reference: US10806795B2, “Bispecific anti-hapten/anti-blood brain barrier receptor antibodies, complexes thereof and their use as blood brain barrier shuttles” (Hoffmann-La Roche Inc., priority 2014, dated 2020)
